## scFv variants of Ab-14 (heavy chain) against a SARS-CoV-2 spike peptide

Reference: Engelhart et al. 2022, doi:10.1038/s41597-022-01779-4. File: FLAb, binding data.

All variants were tested on one target, the spike HR2 peptide PDVDLGDISGINAS (SARS-CoV-2).

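In library AAYL49, one, two or three CDR residues were substituted; doubles and triples were drawn at random. The assay is AlphaSeq: two haploid yeast populations carry antibody and antigen on their surface. Pairs that bind mate more often; barcode pairs of the diploids are counted by sequencing. A regression on co-assayed BCL2-family reference pairs converts the normalised counts of each replicate to an apparent Kd. There are three technical replicates.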

Ab-14 is the parent antibody, in scFv form: VH, then a 15-residue (Gly4Ser)3 linker, then VL. The light chain is unchanged in all variants.
VH: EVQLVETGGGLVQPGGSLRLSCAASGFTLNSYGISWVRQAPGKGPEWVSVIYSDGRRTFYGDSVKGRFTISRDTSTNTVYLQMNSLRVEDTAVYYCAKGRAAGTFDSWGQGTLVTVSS
VL: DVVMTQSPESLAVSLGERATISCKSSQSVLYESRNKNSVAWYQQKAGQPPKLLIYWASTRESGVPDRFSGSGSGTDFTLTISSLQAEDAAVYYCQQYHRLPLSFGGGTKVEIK

Each variant is given by its three heavy chain CDRs, as the data file delimits them; those of the parent are GFTLNSYGIS, VIYSDGRRTFYGDSVK, GRAAGTFDS.
Scale: log10 of Kd in nM, estimated from mating counts; low values are strong binders.
"ND" means that the variant was in the library but no mating with the target was seen in that replicate; the authors take this as a sign of poor binding, and no number exists.

CDR-H1,CDR-H2,CDR-H3,"replicates, log10 nM",control signals
GFTLESYGIS,VIYSDGYRTFYGDSVK,GRAAGTFDS,1.00 / 1.07 / 1.01,2 of 9 (3.61)
CFTLNSYGIS,VIPSDGRRTFYGDSVK,GRAAYTFDS,ND / ND / ND,1 of 9 (4.48)
GFTDNSYGIS,VIYSDGRRTFYGDSVK,GRALGTFGS,2.65 / ND / ND,0 of 9
GFTLNPYGIS,VIYSRGRRTFYGDSVK,GRAAGTFDS,ND / 4.08 / ND,0 of 9
MFTLNSYGIS,VIVSDGRRTFYGDSVK,GRAAGTIDS,ND / ND / ND,0 of 9
GFTLNSQGIS,VIYSDGRRTFYGDSVK,GRHAGTFDS,1.41 / 1.60 / 1.62,1 of 9 (3.66)
MFTLNSYGIS,VIYSDGRRTFYGPSVK,GRAAGTFDS,2.80 / 1.96 / 2.73,1 of 9 (3.39)
GFTLNSYGIS,VIYSDGRREFSGDSVK,GRAAGTFDS,4.03 / ND / 3.82,1 of 9 (4.54)
GFTLNSYGIW,VIYSDGRRTFYGDSVK,TRRAGTFDS,6.03 / ND / ND,4 of 9 (4.01)
GFTLNSYGIS,VIYSDNRRTFYGDSVK,YRAASTFDS,ND / ND / ND,1 of 9 (2.06)
GFTLNSYGIS,DIYSDGRRTFYGDSVK,GRAAAAFDS,4.04 / ND / ND,1 of 9 (4.47)
GFTLNSYGIS,VITSDGRRTFYGWSVK,KRAAGTFDS,4.10 / ND / ND,1 of 9 (3.77)
GPTLNSYGIS,VIYSDGRRTFMGDSVK,VRAAGTFDS,ND / ND / ND,1 of 9 (4.43)
GFTLNSCGIS,VIISDGRRTFYGDSVK,GRAAQTFDS,ND / ND / 3.79,1 of 9 (3.29)
GFTLISYGIS,VIYSDGRRTFYGDSVM,GRAACTFDS,ND / ND / 3.32,1 of 9 (3.45)
GFTLCNYGIS,VIYSDGRRTFYGDSVK,GRAAKTFDS,ND / 5.03 / 4.25,3 of 9 (3.87)
GFTLNSYGIS,VIYSDGRRTQYGDSVK,LRAAGTFDV,ND / 4.01 / ND,2 of 9 (3.38)
GFTLFSYLIS,VIYSDGRRTFYGDSVK,GRAAGTFDS,4.39 / ND / ND,0 of 9
GFTLCSYGIS,VIYSDGRRTFKGDSVK,SRAAGTFDS,ND / ND / ND,0 of 9
GFTLNSYGIS,DIYNDGRRGFYGDSVK,GRAAGTFDS,ND / ND / 4.03,1 of 9 (4.10)
SFTLSSYGIS,VIVSDGRRTFYGDSVK,GRAAGTFDS,ND / ND / ND,2 of 9 (3.87)
GFTLNSNGIS,VIYSDGRRYFYGDSVK,GRAAGTFDM,ND / ND / ND,0 of 9
GFTLNSYGIS,VIYRDGRRTFYGGSPK,GRAAGTFDS,ND / ND / ND,1 of 9 (3.48)
GFTLNSYGIS,VIYSDGRRTFYGDSVK,GRAYGTVVS,1.15 / 1.24 / 1.19,5 of 9 (3.77)
GFTLNSYGIS,EIYSDGRRTFYGDSVK,GRAAGTFDS,ND / 3.28 / ND,2 of 9 (4.17)
GFTLDSYGNS,VIASDGRRTFYGDSVK,GRAAGTFDS,ND / ND / ND,1 of 9 (4.01)
GFTLNSYGIS,DIYSDGRRTFYGDSVN,GRSAGTFDS,ND / ND / ND,0 of 9
GFTLNSYGIS,VIYSDGRRTFYGDSQK,GRAAFTFDK,4.67 / ND / ND,1 of 9 (5.29)
GTTLNSYGIS,VIYSDGRRTFYGDSVK,GRAAGGFDN,4.68 / ND / 4.83,4 of 9 (4.35)
GHTENSYGIS,VIYSDGRRTFYGDSVK,GRSAGTFDS,ND / 3.01 / ND,0 of 9
GFTLNSYGIS,VIYSDGRRTIYGDSVD,GRPAGTFDS,ND / ND / ND,0 of 9
SFTLNSYGSS,VIYEDGRRTFYGDSVK,GRAAGTFDS,ND / ND / ND,1 of 9 (2.93)

Excerpt, the final 4 entries:

CDR-H1	CDR-H2	CDR-H3	replicates, log10 nM	control signals
GTTLNSYGIS	VIYSDGRRTFYGDSVK	GRAAGGFDN	4.68 / ND / 4.83	4 of 9 (4.35)
GHTENSYGIS	VIYSDGRRTFYGDSVK	GRSAGTFDS	ND / 3.01 / ND	0 of 9
GFTLNSYGIS	VIYSDGRRTIYGDSVD	GRPAGTFDS	ND / ND / ND	0 of 9
SFTLNSYGSS	VIYEDGRRTFYGDSVK	GRAAGTFDS	ND / ND / ND	1 of 9 (2.93)

Parent in this assay: reference entry 0.65, copy in this library 4.11 (one replicate of three).
Nonspecific signal, from three strains lacking the peptide, appeared in 15% of pairings of library AAYL49, centred on 4.06 (5% of these signals below 2.83); values are not corrected for it. The control count says in how many pairings with the empty strains this scFv gave a signal, with their mean in brackets.